Consider 1 compound from ChEMBL document CHEMBL3992521, “Pyrimidinyl Biphenylureas: Identification of New Lead Compounds as Allosteric Modulators of the Cannabinoid Receptor CB1” (J Med Chem, 2017).

The chains behind the UniProt entries cited, without tags or fusion partners.
UniProt P21554, whole entry: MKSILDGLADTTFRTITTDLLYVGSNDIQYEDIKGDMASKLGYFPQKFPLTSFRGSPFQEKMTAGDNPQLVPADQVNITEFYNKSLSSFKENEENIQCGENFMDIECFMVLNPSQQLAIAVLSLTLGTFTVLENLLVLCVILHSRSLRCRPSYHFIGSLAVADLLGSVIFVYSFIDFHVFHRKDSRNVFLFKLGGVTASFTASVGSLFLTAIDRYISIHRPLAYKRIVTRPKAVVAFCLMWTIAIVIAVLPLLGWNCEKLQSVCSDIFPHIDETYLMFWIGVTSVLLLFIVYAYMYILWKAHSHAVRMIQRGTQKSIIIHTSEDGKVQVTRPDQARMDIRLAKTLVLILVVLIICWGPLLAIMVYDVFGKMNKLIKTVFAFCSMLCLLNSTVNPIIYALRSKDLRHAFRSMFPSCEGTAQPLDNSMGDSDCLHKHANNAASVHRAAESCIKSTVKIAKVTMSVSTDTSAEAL

For this assay, the target named is Cannabinoid receptor 1 (Homo sapiens) (UniProt P21554). The assay is described as follows: Positive allosteric modulation of CB1 receptor (unknown origin) expressed in HEK293T cell membranes assessed as increase in [3H]CP55,940 binding by liquid scintillation counting method. An outline of the steps: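 Membranes from HEK293T cells transiently expressing CB1 (harvested 24 h post-transfection) incubated with 0.5 nM [3H]CP55,940 and at least nine modulator concentrations (100 pM–100 µM) in TME buffer pH 7.4 with 0.2% fatty acid-free BSA; nonspecific binding with 1 µM unlabeled CP55,940; filtration. KB and cooperativity α from nonlinear regression; duplicate, ≥3 experiments, 95% confidence limits.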

`O=C(Nc1ccc(Cl)cc1)Nc1cccc(-c2cccc(N3CCCC3)n2)c1`: the Kb was 54.3 nM.
